From ChEMBL document CHEMBL5108012, “Discovery of 2,5-diphenyl-1,3,4-thiadiazole derivatives as HDAC inhibitors with DNA binding affinity” (Eur J Med Chem, 2022)

Biological target: T1, Histone deacetylase 8 (Homo sapiens, UniProt Q9BY41)
T1 sequence (Q9BY41 whole entry): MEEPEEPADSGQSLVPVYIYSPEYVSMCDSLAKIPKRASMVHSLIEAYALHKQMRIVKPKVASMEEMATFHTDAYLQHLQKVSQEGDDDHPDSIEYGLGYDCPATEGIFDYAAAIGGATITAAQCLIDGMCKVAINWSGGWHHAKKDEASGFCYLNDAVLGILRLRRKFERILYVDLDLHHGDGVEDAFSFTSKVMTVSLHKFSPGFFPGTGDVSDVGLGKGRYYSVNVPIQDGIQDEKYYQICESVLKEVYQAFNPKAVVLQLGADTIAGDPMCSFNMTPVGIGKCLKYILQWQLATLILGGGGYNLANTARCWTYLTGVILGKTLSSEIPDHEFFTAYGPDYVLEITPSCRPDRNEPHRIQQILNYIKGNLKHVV
Test: Inhibition of HDAC8 in human HeLa cell nuclear extract using Boc-Lys(Ac)-AMC or Boc-Lys(triflouroacetyl)-AMC as substrate incubated for 30 mins and measured by fluorescence assay
Format: cell-free

IC50: 3.9 µM
SMILES: O=C(CCCCCCC(=O)Nc1ccccc1)NO [VORINOSTAT]
